Experimental data reported in ChEMBL document CHEMBL2218924, “A broad activity screen in support of a chemogenomic map for kinase signalling research and drug discovery” (Biochem J, 2013).
For part of these data: Shown are results outside the selection of strong results, which stands elsewhere. The rule behind the calls is not given here. The entries are a selection whose mix differs from that of the whole data set.

Chains of the proteins cited; added tags and fusions are not shown. Lines headed by an entry give the natural chain unless they say otherwise; changes in a name come on top.
UniProt P51956: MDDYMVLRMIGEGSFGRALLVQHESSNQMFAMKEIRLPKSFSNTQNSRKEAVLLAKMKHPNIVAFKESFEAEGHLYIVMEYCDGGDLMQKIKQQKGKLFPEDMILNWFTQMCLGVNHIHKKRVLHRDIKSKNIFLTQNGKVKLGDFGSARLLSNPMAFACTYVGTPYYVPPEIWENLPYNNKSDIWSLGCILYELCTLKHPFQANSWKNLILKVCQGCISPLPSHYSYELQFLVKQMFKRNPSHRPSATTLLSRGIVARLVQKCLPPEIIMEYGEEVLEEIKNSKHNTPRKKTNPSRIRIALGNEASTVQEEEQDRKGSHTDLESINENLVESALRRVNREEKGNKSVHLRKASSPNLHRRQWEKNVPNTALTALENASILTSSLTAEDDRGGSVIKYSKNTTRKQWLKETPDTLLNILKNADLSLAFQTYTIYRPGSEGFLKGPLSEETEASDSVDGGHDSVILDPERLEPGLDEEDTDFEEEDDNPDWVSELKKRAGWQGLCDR
UniProt Q86Y07: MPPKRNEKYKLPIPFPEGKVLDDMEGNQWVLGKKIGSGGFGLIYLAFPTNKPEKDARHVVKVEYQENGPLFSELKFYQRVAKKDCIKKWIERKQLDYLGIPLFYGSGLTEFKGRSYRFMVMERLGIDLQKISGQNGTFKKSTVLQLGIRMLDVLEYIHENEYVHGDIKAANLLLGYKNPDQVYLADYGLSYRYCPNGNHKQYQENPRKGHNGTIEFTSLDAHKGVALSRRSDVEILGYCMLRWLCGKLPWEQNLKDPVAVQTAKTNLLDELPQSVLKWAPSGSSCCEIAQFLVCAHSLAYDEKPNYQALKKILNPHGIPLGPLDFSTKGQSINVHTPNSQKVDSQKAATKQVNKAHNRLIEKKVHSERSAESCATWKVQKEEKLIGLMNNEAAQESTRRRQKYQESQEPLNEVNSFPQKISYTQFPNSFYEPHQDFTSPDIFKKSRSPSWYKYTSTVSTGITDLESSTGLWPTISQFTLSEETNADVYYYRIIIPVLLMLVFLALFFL
UniProt P07947, whole entry, looked up: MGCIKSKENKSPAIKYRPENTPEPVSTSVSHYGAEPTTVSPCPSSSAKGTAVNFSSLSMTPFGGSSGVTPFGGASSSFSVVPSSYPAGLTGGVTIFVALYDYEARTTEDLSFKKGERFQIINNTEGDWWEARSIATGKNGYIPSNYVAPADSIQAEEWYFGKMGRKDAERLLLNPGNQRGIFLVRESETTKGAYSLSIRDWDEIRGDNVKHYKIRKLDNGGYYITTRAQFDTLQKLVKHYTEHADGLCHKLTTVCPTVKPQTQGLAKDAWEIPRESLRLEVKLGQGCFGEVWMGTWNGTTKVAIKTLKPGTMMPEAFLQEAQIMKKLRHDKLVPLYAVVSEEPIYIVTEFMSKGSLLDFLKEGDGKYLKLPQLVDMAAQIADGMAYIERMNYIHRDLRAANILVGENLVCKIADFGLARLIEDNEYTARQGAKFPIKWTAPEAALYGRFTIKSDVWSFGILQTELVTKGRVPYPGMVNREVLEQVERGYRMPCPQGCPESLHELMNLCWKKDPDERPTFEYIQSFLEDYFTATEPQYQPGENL
UniProt P10721, whole entry: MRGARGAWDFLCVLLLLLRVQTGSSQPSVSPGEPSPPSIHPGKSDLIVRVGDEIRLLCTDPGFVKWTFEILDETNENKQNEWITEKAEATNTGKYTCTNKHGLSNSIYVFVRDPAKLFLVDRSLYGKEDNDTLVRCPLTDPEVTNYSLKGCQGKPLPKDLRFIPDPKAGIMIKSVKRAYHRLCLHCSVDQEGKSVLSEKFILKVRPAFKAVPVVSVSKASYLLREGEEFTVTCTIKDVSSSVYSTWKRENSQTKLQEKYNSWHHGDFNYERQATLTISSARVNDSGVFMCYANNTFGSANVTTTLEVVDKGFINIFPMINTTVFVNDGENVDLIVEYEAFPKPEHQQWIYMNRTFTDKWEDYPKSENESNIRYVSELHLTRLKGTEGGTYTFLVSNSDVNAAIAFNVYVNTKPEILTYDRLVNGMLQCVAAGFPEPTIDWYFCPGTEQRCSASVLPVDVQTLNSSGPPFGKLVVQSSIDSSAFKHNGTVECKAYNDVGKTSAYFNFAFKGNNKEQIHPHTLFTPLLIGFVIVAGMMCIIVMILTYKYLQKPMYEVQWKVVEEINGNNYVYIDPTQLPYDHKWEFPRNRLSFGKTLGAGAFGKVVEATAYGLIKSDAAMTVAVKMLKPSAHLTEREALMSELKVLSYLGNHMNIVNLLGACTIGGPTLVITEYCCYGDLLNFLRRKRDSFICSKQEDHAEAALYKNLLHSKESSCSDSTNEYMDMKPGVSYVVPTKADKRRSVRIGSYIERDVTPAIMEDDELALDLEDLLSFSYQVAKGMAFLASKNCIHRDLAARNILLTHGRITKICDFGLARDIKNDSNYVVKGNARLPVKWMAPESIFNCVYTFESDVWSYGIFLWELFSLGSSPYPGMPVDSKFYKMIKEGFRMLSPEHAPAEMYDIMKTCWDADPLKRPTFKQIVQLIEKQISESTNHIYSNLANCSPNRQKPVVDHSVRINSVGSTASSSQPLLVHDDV
UniProt Q8TDX7: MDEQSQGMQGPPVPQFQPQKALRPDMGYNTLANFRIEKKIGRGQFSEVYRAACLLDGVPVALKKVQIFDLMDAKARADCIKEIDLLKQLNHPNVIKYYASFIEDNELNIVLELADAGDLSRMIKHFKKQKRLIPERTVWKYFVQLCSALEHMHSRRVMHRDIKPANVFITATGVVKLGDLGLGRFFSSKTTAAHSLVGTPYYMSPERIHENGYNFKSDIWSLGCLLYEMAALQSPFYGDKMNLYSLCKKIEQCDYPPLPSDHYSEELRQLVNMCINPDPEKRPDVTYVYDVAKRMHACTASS
UniProt Q9P286: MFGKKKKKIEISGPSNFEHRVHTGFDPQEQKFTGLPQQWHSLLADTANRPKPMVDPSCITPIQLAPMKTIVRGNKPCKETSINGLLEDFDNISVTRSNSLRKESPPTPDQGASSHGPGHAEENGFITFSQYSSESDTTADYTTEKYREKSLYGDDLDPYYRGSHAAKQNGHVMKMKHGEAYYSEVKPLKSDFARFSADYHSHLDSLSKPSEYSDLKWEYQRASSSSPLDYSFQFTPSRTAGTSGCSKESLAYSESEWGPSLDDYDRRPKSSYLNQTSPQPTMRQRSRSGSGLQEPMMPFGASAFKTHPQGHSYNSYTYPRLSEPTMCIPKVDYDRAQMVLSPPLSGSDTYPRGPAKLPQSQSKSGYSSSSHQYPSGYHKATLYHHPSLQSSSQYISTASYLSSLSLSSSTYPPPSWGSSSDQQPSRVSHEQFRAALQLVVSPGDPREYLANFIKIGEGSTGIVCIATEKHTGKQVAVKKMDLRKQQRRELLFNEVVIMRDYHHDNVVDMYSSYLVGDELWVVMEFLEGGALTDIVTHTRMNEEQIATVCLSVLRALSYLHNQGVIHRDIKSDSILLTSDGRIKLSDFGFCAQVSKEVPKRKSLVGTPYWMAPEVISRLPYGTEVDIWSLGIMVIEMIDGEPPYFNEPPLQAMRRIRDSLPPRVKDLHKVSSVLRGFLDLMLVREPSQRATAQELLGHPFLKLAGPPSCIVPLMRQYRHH
UniProt Q96RG2: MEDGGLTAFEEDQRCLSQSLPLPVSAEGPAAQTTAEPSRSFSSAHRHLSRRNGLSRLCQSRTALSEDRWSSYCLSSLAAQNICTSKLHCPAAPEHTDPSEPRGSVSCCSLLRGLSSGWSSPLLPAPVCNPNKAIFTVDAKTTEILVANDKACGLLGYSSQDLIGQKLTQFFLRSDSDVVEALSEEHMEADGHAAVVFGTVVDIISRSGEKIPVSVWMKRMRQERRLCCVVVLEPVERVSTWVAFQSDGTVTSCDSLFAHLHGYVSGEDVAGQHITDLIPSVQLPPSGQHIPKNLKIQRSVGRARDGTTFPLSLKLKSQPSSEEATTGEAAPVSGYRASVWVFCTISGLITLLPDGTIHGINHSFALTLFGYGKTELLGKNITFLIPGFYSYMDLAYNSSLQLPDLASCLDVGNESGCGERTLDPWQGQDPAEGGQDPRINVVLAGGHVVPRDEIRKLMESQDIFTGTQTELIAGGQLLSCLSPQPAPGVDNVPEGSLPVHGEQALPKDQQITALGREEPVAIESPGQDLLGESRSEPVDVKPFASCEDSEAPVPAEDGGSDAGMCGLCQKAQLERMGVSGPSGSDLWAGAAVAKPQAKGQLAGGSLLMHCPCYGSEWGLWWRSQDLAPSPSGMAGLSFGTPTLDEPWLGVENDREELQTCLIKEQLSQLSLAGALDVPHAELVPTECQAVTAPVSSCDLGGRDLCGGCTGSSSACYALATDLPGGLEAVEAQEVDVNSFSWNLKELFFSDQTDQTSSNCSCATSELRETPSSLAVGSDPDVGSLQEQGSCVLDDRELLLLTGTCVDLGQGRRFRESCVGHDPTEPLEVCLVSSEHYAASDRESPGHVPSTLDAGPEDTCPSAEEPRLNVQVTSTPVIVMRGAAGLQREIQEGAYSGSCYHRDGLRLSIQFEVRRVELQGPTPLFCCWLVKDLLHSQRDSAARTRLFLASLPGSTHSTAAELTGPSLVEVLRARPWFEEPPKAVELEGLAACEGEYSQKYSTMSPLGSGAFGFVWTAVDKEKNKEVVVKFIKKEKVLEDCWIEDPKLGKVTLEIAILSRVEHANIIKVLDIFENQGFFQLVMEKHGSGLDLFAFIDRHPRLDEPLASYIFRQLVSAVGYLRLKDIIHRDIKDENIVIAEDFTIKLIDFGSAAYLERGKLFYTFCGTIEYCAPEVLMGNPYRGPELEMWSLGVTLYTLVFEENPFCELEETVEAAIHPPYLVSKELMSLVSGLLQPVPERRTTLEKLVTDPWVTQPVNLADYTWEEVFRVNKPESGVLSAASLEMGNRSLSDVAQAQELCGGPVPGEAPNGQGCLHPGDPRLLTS
UniProt O15530: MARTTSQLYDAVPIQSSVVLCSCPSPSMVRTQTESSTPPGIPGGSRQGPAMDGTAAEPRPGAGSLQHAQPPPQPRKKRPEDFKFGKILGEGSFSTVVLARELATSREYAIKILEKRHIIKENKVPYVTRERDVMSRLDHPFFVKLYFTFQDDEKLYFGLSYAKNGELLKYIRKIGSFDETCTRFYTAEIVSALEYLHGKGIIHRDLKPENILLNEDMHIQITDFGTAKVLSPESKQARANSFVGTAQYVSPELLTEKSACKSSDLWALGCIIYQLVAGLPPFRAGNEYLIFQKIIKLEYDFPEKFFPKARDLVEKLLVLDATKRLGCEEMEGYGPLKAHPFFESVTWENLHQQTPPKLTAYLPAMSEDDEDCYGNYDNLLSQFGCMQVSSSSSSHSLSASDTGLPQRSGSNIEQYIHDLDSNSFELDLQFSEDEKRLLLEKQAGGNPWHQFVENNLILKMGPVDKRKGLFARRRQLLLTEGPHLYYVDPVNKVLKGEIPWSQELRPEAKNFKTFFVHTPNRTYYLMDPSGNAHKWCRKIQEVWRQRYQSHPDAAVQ
UniProt P31749: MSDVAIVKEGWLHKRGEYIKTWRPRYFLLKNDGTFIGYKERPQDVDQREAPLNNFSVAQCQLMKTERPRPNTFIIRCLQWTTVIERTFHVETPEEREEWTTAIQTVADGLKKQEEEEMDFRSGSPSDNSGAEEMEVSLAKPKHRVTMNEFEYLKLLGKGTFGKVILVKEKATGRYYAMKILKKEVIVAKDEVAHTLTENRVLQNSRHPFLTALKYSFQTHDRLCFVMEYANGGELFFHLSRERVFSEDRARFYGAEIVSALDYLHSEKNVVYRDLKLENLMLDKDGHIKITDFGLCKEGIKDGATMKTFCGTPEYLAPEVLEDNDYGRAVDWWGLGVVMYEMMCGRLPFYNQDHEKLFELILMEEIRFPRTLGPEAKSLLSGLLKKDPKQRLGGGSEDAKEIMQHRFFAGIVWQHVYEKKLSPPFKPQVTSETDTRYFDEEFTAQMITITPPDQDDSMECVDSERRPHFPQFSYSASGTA
UniProt P05771, whole entry, looked up: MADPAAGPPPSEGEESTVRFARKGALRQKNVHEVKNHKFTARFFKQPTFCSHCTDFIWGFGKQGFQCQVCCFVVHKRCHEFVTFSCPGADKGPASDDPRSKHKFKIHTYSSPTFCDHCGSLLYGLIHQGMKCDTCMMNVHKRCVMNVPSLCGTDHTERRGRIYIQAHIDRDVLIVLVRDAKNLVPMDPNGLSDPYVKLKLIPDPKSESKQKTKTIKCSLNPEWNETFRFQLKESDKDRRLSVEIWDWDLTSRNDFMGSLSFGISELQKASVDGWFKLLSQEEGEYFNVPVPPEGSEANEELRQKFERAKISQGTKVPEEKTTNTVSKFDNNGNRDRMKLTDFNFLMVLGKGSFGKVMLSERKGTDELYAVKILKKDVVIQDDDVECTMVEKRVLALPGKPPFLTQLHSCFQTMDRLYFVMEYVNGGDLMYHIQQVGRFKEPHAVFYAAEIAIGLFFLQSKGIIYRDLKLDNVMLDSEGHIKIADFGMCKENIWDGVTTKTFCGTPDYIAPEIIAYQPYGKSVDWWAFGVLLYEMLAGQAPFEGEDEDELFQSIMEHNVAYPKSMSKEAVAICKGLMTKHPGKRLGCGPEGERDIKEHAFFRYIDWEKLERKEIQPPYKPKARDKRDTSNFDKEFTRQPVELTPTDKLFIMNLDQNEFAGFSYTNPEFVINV

Assays:
[1] = target: Serine/threonine-protein kinase Nek2 (Homo sapiens) (UniProt P51955); conditions: at 1 µM
[2] = target: Serine/threonine-protein kinase Nek3 (Homo sapiens) (UniProt P51956); conditions: at 10 µM
[3] = target: T1, Serine/threonine-protein kinase ULK2 (Homo sapiens) (UniProt Q8IYT8); conditions: at 1 µM
T1 sequence (whole entry): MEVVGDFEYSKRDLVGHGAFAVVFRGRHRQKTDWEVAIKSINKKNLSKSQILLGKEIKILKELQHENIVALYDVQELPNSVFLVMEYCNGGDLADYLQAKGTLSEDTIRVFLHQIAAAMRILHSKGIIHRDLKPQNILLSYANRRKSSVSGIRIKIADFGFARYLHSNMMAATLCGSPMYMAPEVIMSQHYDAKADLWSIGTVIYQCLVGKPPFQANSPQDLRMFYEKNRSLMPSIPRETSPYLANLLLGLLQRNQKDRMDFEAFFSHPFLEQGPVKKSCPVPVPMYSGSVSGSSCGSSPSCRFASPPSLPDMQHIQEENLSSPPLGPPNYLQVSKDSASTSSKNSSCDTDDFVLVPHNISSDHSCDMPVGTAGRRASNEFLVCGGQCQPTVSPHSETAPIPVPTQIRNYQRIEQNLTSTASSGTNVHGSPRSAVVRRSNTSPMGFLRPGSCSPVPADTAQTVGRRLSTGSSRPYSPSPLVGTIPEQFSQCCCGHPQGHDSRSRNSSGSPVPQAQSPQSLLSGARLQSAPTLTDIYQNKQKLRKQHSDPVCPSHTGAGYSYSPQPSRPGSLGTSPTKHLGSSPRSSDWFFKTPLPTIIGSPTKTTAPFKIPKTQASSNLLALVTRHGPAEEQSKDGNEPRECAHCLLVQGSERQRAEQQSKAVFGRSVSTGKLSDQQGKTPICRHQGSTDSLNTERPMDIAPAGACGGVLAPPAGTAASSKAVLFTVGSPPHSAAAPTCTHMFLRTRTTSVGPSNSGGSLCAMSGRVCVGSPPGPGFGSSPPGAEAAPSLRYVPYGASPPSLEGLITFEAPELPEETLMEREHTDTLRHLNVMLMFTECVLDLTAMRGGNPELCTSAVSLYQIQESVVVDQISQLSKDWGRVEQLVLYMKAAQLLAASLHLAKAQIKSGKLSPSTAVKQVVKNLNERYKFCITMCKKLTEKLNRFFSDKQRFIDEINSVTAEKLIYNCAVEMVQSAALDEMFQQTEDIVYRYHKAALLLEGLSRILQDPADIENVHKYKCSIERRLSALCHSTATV

[4] = target: T1, Serine/threonine-protein kinase ULK2 (Homo sapiens); conditions: at 10 µM
[5] = target: Serine/threonine-protein kinase VRK2 (Homo sapiens) (UniProt Q86Y07); conditions: at 1 µM
[6] = target: Serine/threonine-protein kinase VRK2 (Homo sapiens) (UniProt Q86Y07); conditions: at 10 µM
[7] = target: Tyrosine-protein kinase Yes (Homo sapiens) (UniProt P07947); conditions: at 1 µM
[8] = target: T2, Tyrosine-protein kinase ZAP-70 (Homo sapiens) (UniProt P43403); conditions: at 1 µM
T2 sequence (whole entry): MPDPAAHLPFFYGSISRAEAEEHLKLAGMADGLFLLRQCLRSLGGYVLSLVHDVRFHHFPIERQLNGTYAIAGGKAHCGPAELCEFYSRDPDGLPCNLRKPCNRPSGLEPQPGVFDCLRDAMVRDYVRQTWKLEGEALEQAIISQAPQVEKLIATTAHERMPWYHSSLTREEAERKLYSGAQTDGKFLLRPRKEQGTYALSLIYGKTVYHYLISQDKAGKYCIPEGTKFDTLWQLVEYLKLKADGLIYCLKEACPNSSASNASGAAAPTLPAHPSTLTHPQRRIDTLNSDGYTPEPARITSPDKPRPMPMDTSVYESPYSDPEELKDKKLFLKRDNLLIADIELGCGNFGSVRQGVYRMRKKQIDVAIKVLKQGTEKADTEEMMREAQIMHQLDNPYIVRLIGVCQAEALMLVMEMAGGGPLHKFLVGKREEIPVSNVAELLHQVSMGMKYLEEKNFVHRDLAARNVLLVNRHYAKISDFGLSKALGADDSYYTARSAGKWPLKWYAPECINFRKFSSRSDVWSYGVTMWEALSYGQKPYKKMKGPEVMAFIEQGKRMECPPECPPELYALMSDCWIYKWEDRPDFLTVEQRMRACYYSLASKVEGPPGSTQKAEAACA

[9] = target: T2, Tyrosine-protein kinase ZAP-70 (Homo sapiens); conditions: at 10 µM
[10] = target: Mast/stem cell growth factor receptor Kit (Homo sapiens) (UniProt P10721); conditions: at 1 µM
[11] = target: Proto-oncogene tyrosine-protein kinase Src (Homo sapiens) (UniProt P12931); conditions: at 1 µM
[12] = target: T3, Serine/threonine-protein kinase Nek6 (Homo sapiens) (UniProt Q9HC98); conditions: at 10 µM
T3 sequence (whole entry): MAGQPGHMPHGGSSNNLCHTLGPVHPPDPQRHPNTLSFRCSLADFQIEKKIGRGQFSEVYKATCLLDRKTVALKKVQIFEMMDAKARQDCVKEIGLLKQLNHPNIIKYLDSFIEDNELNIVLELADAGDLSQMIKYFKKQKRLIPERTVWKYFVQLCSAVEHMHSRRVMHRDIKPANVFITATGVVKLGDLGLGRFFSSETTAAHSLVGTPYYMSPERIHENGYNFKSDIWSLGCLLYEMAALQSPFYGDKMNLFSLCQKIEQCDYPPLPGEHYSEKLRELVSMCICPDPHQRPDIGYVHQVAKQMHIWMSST

[13] = target: Serine/threonine-protein kinase Nek7 (Homo sapiens) (UniProt Q8TDX7); conditions: at 10 µM
[14] = target: Serine/threonine-protein kinase PAK 4 (Homo sapiens) (UniProt O96013); conditions: at 10 µM
[15] = target: Serine/threonine-protein kinase PAK 5 (Homo sapiens) (UniProt Q9P286); conditions: at 1 µM
[16] = target: PAS domain-containing serine/threonine-protein kinase (Homo sapiens) (UniProt Q96RG2); conditions: at 1 µM
[17] = target: T4, Activin receptor type-1B (Homo sapiens) (UniProt P36896); conditions: at 10 µM
T4 sequence (whole entry): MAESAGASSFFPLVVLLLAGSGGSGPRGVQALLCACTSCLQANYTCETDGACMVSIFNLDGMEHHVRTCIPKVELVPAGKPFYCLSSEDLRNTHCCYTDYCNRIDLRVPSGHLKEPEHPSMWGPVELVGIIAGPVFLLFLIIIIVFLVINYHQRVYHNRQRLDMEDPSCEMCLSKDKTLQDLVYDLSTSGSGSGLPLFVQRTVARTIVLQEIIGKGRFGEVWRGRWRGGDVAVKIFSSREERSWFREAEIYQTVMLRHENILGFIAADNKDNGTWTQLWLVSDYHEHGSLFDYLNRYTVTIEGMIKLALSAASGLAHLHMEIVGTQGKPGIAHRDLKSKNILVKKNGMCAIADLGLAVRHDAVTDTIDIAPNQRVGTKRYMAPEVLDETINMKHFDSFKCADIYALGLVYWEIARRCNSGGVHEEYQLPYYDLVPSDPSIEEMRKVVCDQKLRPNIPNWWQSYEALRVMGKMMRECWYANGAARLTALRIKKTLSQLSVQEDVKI

[18] = target: Platelet-derived growth factor receptor alpha (Homo sapiens) (UniProt P16234); conditions: at 1 µM
[19] = target: Platelet-derived growth factor receptor alpha (Homo sapiens) (UniProt P16234); conditions: at 10 µM
[20] = target: Platelet-derived growth factor receptor beta (Homo sapiens) (UniProt P09619); conditions: at 1 µM
[21] = target: 3-phosphoinositide-dependent protein kinase 1 (Homo sapiens) (UniProt O15530); conditions: at 1 µM
[22] = target: 3-phosphoinositide-dependent protein kinase 1 (Homo sapiens) (UniProt O15530); conditions: at 10 µM
[23] = target: cAMP-dependent protein kinase catalytic subunit alpha (Homo sapiens) (UniProt P17612); conditions: at 1 µM
[24] = target: cAMP-dependent protein kinase catalytic subunit alpha (Homo sapiens) (UniProt P17612); conditions: at 10 µM
[25] = target: RAC-alpha serine/threonine-protein kinase (Homo sapiens) (UniProt P31749); conditions: at 10 µM
[26] = target: Protein kinase C alpha type (Homo sapiens) (UniProt P17252); conditions: at 10 µM
[27] = target: Protein kinase C beta type (Homo sapiens) (UniProt P05771); conditions: at 1 µM
[28] = target: Protein kinase C beta type (Homo sapiens) (UniProt P05771); conditions: at 10 µM
[29] = target: Protein kinase C beta type (Homo sapiens) (UniProt P05771); conditions: at 1 µM; remark: listed apart in the source
[30] = target: T5, Protein kinase C epsilon type (Homo sapiens) (UniProt Q02156); conditions: at 10 µM
T5 sequence (whole entry): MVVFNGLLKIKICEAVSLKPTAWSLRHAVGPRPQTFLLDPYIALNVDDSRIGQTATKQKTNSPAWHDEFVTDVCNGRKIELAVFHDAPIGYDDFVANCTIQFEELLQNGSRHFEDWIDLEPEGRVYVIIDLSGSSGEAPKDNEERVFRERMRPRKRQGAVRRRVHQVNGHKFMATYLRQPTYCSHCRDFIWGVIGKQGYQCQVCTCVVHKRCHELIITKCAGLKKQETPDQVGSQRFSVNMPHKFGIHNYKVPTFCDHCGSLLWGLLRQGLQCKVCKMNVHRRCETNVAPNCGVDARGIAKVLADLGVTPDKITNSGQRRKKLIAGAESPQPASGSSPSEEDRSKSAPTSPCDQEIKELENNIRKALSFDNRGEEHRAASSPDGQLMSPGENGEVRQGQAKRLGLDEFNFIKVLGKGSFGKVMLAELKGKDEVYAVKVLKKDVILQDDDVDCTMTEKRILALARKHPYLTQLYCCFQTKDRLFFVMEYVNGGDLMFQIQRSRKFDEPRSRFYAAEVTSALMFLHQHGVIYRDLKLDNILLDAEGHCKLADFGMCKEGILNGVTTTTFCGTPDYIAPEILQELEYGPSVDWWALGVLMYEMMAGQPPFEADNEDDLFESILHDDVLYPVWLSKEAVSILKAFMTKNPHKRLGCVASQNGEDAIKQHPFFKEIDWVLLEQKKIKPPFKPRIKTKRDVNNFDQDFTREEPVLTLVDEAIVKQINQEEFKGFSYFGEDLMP

## O=C1NC(=O)C(c2cn(CCCO)c3ncccc23)=C1c1cnccn1
[1]
  residual activity: 102%
[2]
  residual activity: 102%
[3]
  residual activity: 101%
[4]
  residual activity: 102%
[5]
  residual activity: inactive: 102%
[6]
  residual activity: 94%
[7]
  residual activity: 109%
[8]
  residual activity: 112%
[9]
  residual activity: 101%
[10]
  residual activity: 108%
[11]
  residual activity: 102%
[12]
  residual activity: 100%
[13]
  residual activity: inactive: 100%
[14]
  residual activity: 101%
[15]
  residual activity: 106%
[16]
  residual activity: 114%
[17]
  residual activity: 112%
[18]
  residual activity: 102%
[19]
  residual activity: 103%
[20]
  residual activity: 112%
[21]
  residual activity: 105%
[22]
  residual activity: 99%
[23]
  residual activity: 95%
[24]
  residual activity: 102%
[25]
  residual activity: 111%
[26]
  residual activity: 95%
[27]
  residual activity: 122%
[28]
  residual activity: 117%
[29]
  residual activity: 110%
[30]
  residual activity: 110%
